{"source": "patent US4767764A", "about": "“Alkoxyalkyl and alkylmercaptoalkyl substituted bridged benzofuroisoquinolines having opioid antagonist and/or appetite-controlling properties” (E. I. Du Pont de Nemours and Company, priority 1986, dated 1988)", "origin": "cited, not measured here", "test_system": "μ (mu), κ (kappa) and δ (delta) opioid receptors", "details": "established opioid antagonists; cited from earlier work", "data": [{"smiles": "C=CCN1CC[C@]23c4c5ccc(O)c4O[C@H]2C(=O)CC[C@@]3(O)[C@H]1C5", "note": "[Naloxone, naloxone]", "values": [{"measurement": "opioid receptor binding in words", "result": "bind to all three types of receptors, with greatest affinity for the mu receptor"}]}]}
